In general, inhibition refers to the change of the read-out against control, counted positive when it falls.

The source of these data is PubChem BioAssay AID1159606 (Sanford-Burnham Center for Chemical Genomics, 2016).

The entries are a selection whose mix differs from that of the whole data set. Active and inactive are the calls of the source. Rule as the data show it: active = inhibition above about 50%; inactive = the rest.

This assay is described as follows: blockers of TWEAK-induced Fn14 reporter activity – luciferase reporter cells, uHTS, primary screen (AID 1159606). Particulars: TWEAK-stimulated Fn14 reporter cells, luciferase luminescence, 8 h; at 10 µM; active compounds read high. (A reporter such as luciferase makes a cellular process visible.)
For the compound `COc1ccc(C(=O)NCC2(N3CCCCC3)CCCCC2)c(OC)c1OC`, the inhibition is inactive: -3.76%.

On to `CC(C)(C)OC(=O)N1CCC(N(C(=O)c2ccccc2)c2ccc(F)cc2)CC1`, for which the inhibition is inactive: 0.62%.

As to `CCC(c1nnnn1C1CCCC1)N1CCC(n2c(=O)[nH]c3ccccc32)CC1` (stereo not drawn), the inhibition is inactive: -36.1%.

Take `COc1ccc(C(=O)NCC2(N3CCCCC3)CCCCC2)cc1`: the inhibition is inactive: 7.19%.

With `CCCCn1nnnc1C(CC)N1CCC(n2c(=O)[nH]c3ccccc32)CC1` (stereo not drawn), the inhibition was inactive: -3.62%.

In the case of `O=C(NCC1(N2CCCCC2)CCCCC1)c1cccs1`, the inhibition was inactive: -0.99%.

Turning to `CCCCn1nnnc1C(c1cccs1)N1CCC(n2c(=O)[nH]c3ccccc32)CC1` (stereo not drawn), the inhibition was inactive: 18.9%.

For `O=C(NCC1(N2CCCCC2)CCCCC1)c1ccc(=O)[nH]c1`, the inhibition was inactive: 12.8%.

Consider `Cc1cccc(NC2(C#N)CCN(Cc3ccccc3)CC2)c1`, for which the inhibition is inactive: -1.91%.

In the case of `CSc1ccccc1C(=O)NCC1(N2CCCCC2)CCCCC1`, the inhibition is inactive: -13.3%.

Turning to `Cc1cc(C)cc(N(C(=O)c2ccccc2)C2CCN(C(=O)OC(C)(C)C)CC2)c1`, the inhibition was inactive: -2.84%.

For `O=C(NCC1(N2CCCCC2)CCCCC1)c1ccc(Cl)nc1`, the inhibition was inactive: -8.86%.

Consider `O=c1[nH]c2ccccc2n1C1CCN(C(c2ccccc2OC(F)(F)F)c2nnnn2C2CCCCC2)CC1` (stereo not drawn), for which the inhibition is inactive: 5.24%.

As to `O=C(NCC1(N2CCOCC2)CCCCC1)c1cc2ccccc2o1`, the inhibition was inactive: -10.1%.

Regarding `COc1ccc(Cl)cc1C(=O)NCC1(N2CCOCC2)CCCCC1`, the inhibition was inactive: -1.01%.

With `N#CC1(Nc2ccccc2)CCN(Cc2ccccc2)CC1`, the inhibition was inactive: -0.84%.

For the compound `O=C(NCC1(N2CCCCC2)CCCCC1)c1ccc(Cl)s1`, the inhibition was inactive: -16.1%.

Turning to `O=c1[nH]c2ccccc2n1C1CCN(C(c2cc3ccccc3o2)c2nnnn2C2CCCCC2)CC1` (stereo not drawn), the inhibition is active: 81.2%.

`O=C(OC1CN2CCC1CC2)C1c2ccccc2Oc2ccccc21` (stereo not drawn): the inhibition is inactive: -1.31%.

Consider `CCCCn1nnnc1C(c1ccc(OC)cc1)N1CCC(n2c(=O)[nH]c3ccccc32)CC1` (stereo not drawn), for which the inhibition is inactive: -7.96%.

`CCOC(=O)N1CCC(Nc2ccc(OC)cc2)CC1`: the inhibition is inactive: -3.76%.

With `O=C1CCN(Cc2ccccc2)CC1`, the inhibition is inactive: 2.92%.

As for `CC(C)(C)n1nnnc1C(c1ccccc1)N1CCC(n2c(=O)[nH]c3ccccc32)CC1` (stereo not drawn), the inhibition is inactive: -13.9%.

Turning to `CCOc1ccc(C)cc1CN(CCCl)CCCl`, the inhibition was inactive: -5.32%.

`CCOC(=O)N1CCC(Nc2ccc(F)cc2)CC1`: the inhibition is inactive: 1.83%.

Consider `COc1ccc(NC2CCN(CCc3ccccc3)CC2)c(OC)c1`, for which the inhibition was inactive: 1.16%.

For the compound `CCCCOc1ccc(C(=O)NCC2(N3CCOCC3)CCCCC2)cc1`, the inhibition was inactive: 2.86%.

As for `O=P1(N(CCCl)CCCl)SCCCS1`, the inhibition is inactive: 25.2%.

Regarding `CCCCn1nnnc1C(c1cc2ccccc2o1)N1CCC(n2c(=O)[nH]c3ccccc32)CC1` (stereo not drawn), the inhibition is active: 58.6%.

Turning to `O=C(NCC1(N2CCCCC2)CCCCC1)c1ccc(F)cc1`, the inhibition was inactive: 9.76%.

In the case of `O=c1[nH]c2ccccc2n1C1CCN(C(c2ccccc2)c2nnnn2C2CCCCC2)CC1` (stereo not drawn), the inhibition is inactive: 36.6%.

On to `CCOC(=O)N1CCC(Nc2cccc(C)c2)CC1`, for which the inhibition was inactive: 1.14%.

On to `COc1cc(C(=O)NCC2(N(C)C)CCCCC2)ccc1OC(F)F`, for which the inhibition was inactive: 7.45%.

`O=c1[nH]c2ccccc2n1C1CCN(C(c2cccc3ccccc23)c2nnnn2C2CCCC2)CC1` (stereo not drawn): the inhibition was inactive: 14.3%.

Consider `O=C(NCC1(N2CCCCC2)CCCCC1)c1ccc(OC(F)F)cc1`, for which the inhibition was inactive: -3.92%.

For the compound `CC(C)(C)n1nnnc1C(c1ccccc1OC(F)(F)F)N1CCC(n2c(=O)[nH]c3ccccc32)CC1` (stereo not drawn), the inhibition is inactive: 19.8%.

`O=c1[nH]c2ccccc2n1C1CCN(C(c2ccccc2OC(F)(F)F)c2nnnn2C2CCCC2)CC1` (stereo not drawn): the inhibition is inactive: 28.4%.

Consider `N#CC1(Nc2ccccc2)CCN(CCc2ccccc2)CC1`, for which the inhibition was inactive: -3.53%.

As for `CCN1CCC(Nc2ccc(Cl)cc2)CC1`, the inhibition is inactive: 4.31%.

With `CSc1ccc(C(=O)NCC2(N3CCOCC3)CCCCC2)cc1`, the inhibition is inactive: -1.78%.

`O=C(NCC1(N2CCCCC2)CCCCC1)c1cccc([N+](=O)[O-])c1`: the inhibition was inactive: 8.84%.

As to `O=C(NCC1(N2CCCCC2)CCCCC1)c1cccc(C(F)(F)F)c1`, the inhibition was inactive: 13.9%.

In the case of `O=C(NCC1(N2CCOCC2)CCCCC1)c1cc(=O)[nH]c2ccccc12`, the inhibition is inactive: 15.3%.

As to `COc1cc(C(=O)NCC2(N3CCCCC3)CCCCC2)ccc1OC(F)F`, the inhibition is inactive: 7.32%.

With `COc1ccc(NC2CCN(C(=O)OC(C)(C)C)CC2)cc1`, the inhibition was inactive: -6.21%.

With `CC(C)c1ccc(C(=O)NCC2(N3CCOCC3)CCCCC2)cc1`, the inhibition is inactive: -20.3%.

With `CN1CCN(CCOC(=O)C(O)(c2ccccc2)c2ccccc2)CC1`, the inhibition was inactive: -10.9%.

With `CCCCn1nnnc1C(c1cccc2ccccc12)N1CCC(n2c(=O)[nH]c3ccccc32)CC1` (stereo not drawn), the inhibition is inactive: 15.7%.

As to `CC(C)c1ccc(NC2CCN(C(=O)OC(C)(C)C)CC2)cc1`, the inhibition is inactive: -4.08%.

As for `CCCCn1nnnc1C(c1ccccc1OC(F)(F)F)N1CCC(n2c(=O)[nH]c3ccccc32)CC1` (stereo not drawn), the inhibition was inactive: 18.4%.

Take `CN(C)c1cccc(C(=O)NCC2(N3CCCCC3)CCCCC2)c1`: the inhibition was inactive: 5.11%.

On to `COc1ccc(CN(CCCl)CCCl)cc1Cl`, for which the inhibition was inactive: 11.2%.

Take `O=C(NCC1(N2CCOCC2)CCCCC1)c1cc(F)c(F)cc1Cl`: the inhibition was inactive: -10.1%.

On to `CCC(c1nnnn1C(C)(C)C)N1CCC(n2c(=O)[nH]c3ccccc32)CC1` (stereo not drawn), for which the inhibition is inactive: -10.7%.

For `COc1cc(OC)c(C(=O)NCC2(N(C)C)CCCCC2)cc1OC`, the inhibition is inactive: -4.8%.

With `CCCCn1nnnc1C(c1ccnc2ccccc12)N1CCC(n2c(=O)[nH]c3ccccc32)CC1` (stereo not drawn), the inhibition was inactive: 3.82%.

For `CN1CCC(Nc2cccc(F)c2)CC1`, the inhibition was inactive: -0.39%.

Turning to `O=C(NCC1(N2CCCCC2)CCCCC1)c1cncc(Br)c1`, the inhibition was inactive: 6.46%.

As for `COc1ccc(C(c2nnnn2C2CCCC2)N2CCC(n3c(=O)[nH]c4ccccc43)CC2)cc1` (stereo not drawn), the inhibition is inactive: -1.47%.

With `CCCOc1ccc(C(=O)NCC2(N(C)C)CCCCC2)cc1OC`, the inhibition is inactive: -1.72%.

In the case of `Cc1ccc(C(=O)NCC2(N(C)C)CCCCC2)o1`, the inhibition was inactive: -13.4%.

Turning to `COc1cc(C(=O)NCC2(N3CCOCC3)CCCCC2)cc(OC)c1C`, the inhibition was inactive: -3.02%.

`CCCCn1nnnc1C(c1ccccc1)N1CCC(n2c(=O)[nH]c3ccccc32)CC1` (stereo not drawn): the inhibition was inactive: 18.6%.

`O=C(NCC1(N2CCOCC2)CCCCC1)c1cc(Br)ccc1Cl`: the inhibition is inactive: -5.51%.

Take `O=c1[nH]c2ccccc2n1C1CCN(C(c2cccs2)c2nnnn2C2CCCCC2)CC1` (stereo not drawn): the inhibition was inactive: 23.6%.

As for `O=c1[nH]c2ccccc2n1C1CCN(C(c2ccnc3ccccc23)c2nnnn2C2CCCC2)CC1` (stereo not drawn), the inhibition is inactive: -12.3%.

As for `COc1ccc(C(=O)NCC2(N3CCOCC3)CCCCC2)cc1OC`, the inhibition was inactive: -1.79%.

With `CCOC(=O)N1CCC(Nc2ccc(C)cc2)CC1`, the inhibition is inactive: -0.69%.

Consider `COc1cccc(C(c2nnnn2C(C)(C)C)N2CCC(n3c(=O)[nH]c4ccccc43)CC2)c1OC` (stereo not drawn), for which the inhibition was inactive: 10.3%.

For the compound `N/C(=N\O)c1c(N)no[n+]1[O-]`, the inhibition is inactive: -2.4%.

As for `O=c1[nH]c2ccccc2n1C1CCN(C(c2cccs2)c2nnnn2C2CCCC2)CC1` (stereo not drawn), the inhibition was inactive: 20.2%.

On to `O=C(OC1CN2CCC1CC2)C1c2ccccc2C=Cc2ccccc21` (stereo not drawn), for which the inhibition was inactive: 2.13%.

As to `CCCCn1nnnc1C(c1cccc(OC)c1OC)N1CCC(n2c(=O)[nH]c3ccccc32)CC1` (stereo not drawn), the inhibition was inactive: 41.1%.

As to `N#Cc1ccc(C(=O)NCC2(N3CCCCC3)CCCCC2)cc1`, the inhibition is inactive: 2.33%.

Consider `CC(C)(C)OC(=O)N1CCC(N(C(=O)c2ccccc2)c2ccc(Cl)cc2)CC1`, for which the inhibition was inactive: -13.2%.

For the compound `CN(C)C1(CNC(=O)c2cccc(C#N)c2)CCCCC1`, the inhibition was inactive: 5.27%.

As for `CCCN1CCC(Nc2cc(OC)cc(OC)c2)CC1`, the inhibition was inactive: 31.9%.

In the case of `O=c1[nH]c2ccccc2n1C1CCN(C(c2ccccc2)c2nnnn2C2CCCC2)CC1` (stereo not drawn), the inhibition was inactive: 0.95%.

`Cc1cc(N(CCCl)CCCl)ccc1C=O`: the inhibition was inactive: 4.01%.

For the compound `c1ccc(CN2CCC(Nc3ccccc3)CC2)cc1`, the inhibition is inactive: -6.13%.

For the compound `CC(C)(C)n1nnnc1C(c1cccc2ccccc12)N1CCC(n2c(=O)[nH]c3ccccc32)CC1` (stereo not drawn), the inhibition was inactive: 45.1%.

Regarding `CCC(c1nnnn1C1CCCCC1)N1CCC(n2c(=O)[nH]c3ccccc32)CC1` (stereo not drawn), the inhibition was inactive: 0.96%.

Regarding `COc1cccc(C(c2nnnn2C2CCCCC2)N2CCC(n3c(=O)[nH]c4ccccc43)CC2)c1OC` (stereo not drawn), the inhibition is inactive: 45.4%.

As to `CC(=O)N(c1ccccc1)C1CCNCC1`, the inhibition is inactive: 8.68%.

Turning to `COc1cc(OC)cc(C(=O)NCC2(N3CCCCC3)CCCCC2)c1`, the inhibition is inactive: -10.2%.

Regarding `O=c1[nH]c2ccccc2n1C1CCN(C(c2ccnc3ccccc23)c2nnnn2C2CCCCC2)CC1` (stereo not drawn), the inhibition is inactive: 11.4%.

Consider `Fc1ccccc1NC1CCN(Cc2ccccc2)CC1`, for which the inhibition was inactive: 1.94%.

Take `Cc1ccc(C(=O)NCC2(N3CCCCC3)CCCCC2)o1`: the inhibition is inactive: -1.1%.

As to `Cc1ccc(NC2(C#N)CCN(Cc3ccccc3)CC2)cc1`, the inhibition was inactive: -1.08%.

`COc1ccc(C(c2nnnn2C2CCCCC2)N2CCC(n3c(=O)[nH]c4ccccc43)CC2)cc1` (stereo not drawn): the inhibition is inactive: 32.5%.

For `CCN1CCC(Nc2cccc(F)c2)CC1`, the inhibition was inactive: 22.9%.

In the case of `CC(C)(C)n1nnnc1C(c1ccnc2ccccc12)N1CCC(n2c(=O)[nH]c3ccccc32)CC1` (stereo not drawn), the inhibition is inactive: -33.5%.

With `Cc1ccccc1NC1(C#N)CCN(Cc2ccccc2)CC1`, the inhibition was inactive: 18.5%.

Consider `CN(C)c1ccc(C(=O)NCC2(N3CCCCC3)CCCCC2)cc1`, for which the inhibition was inactive: -3.31%.

For the compound `Cn1c(=O)[nH]cc(N(CCCl)CCCl)c1=O`, the inhibition was inactive: 0.43%.

On to `O=C(NCC1(N2CCCCC2)CCCCC1)c1ccco1`, for which the inhibition was inactive: 3.35%.

Turning to `CN1CCC(Nc2ccc(F)c(Cl)c2)CC1`, the inhibition was inactive: -6.79%.

Turning to `CCOc1ncccc1C(=O)NCC1(N2CCOCC2)CCCCC1`, the inhibition was inactive: -8.26%.

Take `NN(c1ccccc1)C1CCN(CCc2ccccc2)CC1`: the inhibition was inactive: -9.18%.

Consider `O=C(O)C1(Nc2ccccc2)CCN(Cc2ccccc2)CC1`, for which the inhibition is inactive: 1.34%.

Consider `CC(C)(C)OC(=O)N1CCC(Nc2ccccc2)CC1`, for which the inhibition was inactive: -7.57%.

For `O=c1[nH]c2ccccc2n1C1CCN(C(c2cc3ccccc3o2)c2nnnn2C2CCCC2)CC1` (stereo not drawn), the inhibition was inactive: 42.2%.

Regarding `CCCOc1ccc(C(=O)NCC2(N(C)C)CCCCC2)cc1`, the inhibition is inactive: 14.2%.

As for `COc1cccc(C(=O)N(c2cc(C)cc(C)c2)C2CCN(C(=O)OC(C)(C)C)CC2)c1`, the inhibition was inactive: 7.66%.

`COc1cccc(C(c2nnnn2C2CCCC2)N2CCC(n3c(=O)[nH]c4ccccc43)CC2)c1OC` (stereo not drawn): the inhibition is inactive: 31.6%.

`COc1cc(OC)cc(C(=O)NCC2(N3CCOCC3)CCCCC2)c1`: the inhibition is inactive: -19.1%.

Consider `CCC(CO)(C(=O)OC1CN2CCC1CC2)c1ccccc1` (stereo not drawn), for which the inhibition was inactive: 18.9%.

`CN1CCC(Nc2ccc(Cl)cc2)CC1`: the inhibition is inactive: -3.36%.
